The assay concerns the target Serotonin 4 (5-HT4) receptor (Sus scrofa, UniProt Q6Q253). As to the kind of experiment: Binding affinity to 5HT4 receptor in pig striatal membranes. It is filed as cell membranes, Striatum, Membrane.

By UniProt entry, the sequences of proteins in these tests, tags left out.
UniProt Q6Q253, whole entry: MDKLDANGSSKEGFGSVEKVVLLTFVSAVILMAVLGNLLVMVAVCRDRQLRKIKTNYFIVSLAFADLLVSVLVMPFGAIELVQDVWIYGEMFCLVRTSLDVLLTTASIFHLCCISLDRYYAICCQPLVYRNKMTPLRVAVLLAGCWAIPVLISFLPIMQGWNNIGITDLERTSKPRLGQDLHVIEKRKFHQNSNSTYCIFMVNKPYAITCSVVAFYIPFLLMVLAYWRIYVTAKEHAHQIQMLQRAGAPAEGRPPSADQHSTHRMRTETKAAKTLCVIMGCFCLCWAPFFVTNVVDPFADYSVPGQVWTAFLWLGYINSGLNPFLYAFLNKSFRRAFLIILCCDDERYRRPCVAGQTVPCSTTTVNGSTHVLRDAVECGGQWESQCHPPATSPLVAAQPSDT

Usually Kd stands for a measure of binding affinity in units of concentration. Low readings indicate higher affinity, high ones lower affinity.

`CCCCN1CCC(COC(=O)c2cc(I)c(N)c3c2OCCO3)CC1` yielded a Kd of 80 pM.

(Values after ChEMBL document CHEMBL3124938, “Synthesis and biological evaluation of positron emission tomography radiotracers targeting serotonin 4 receptors in brain: [18F]MNI-698 and [18F]MNI-699” (Bioorg Med Chem Lett, 2013).)
